We go through three substances from patent US7220849B2, “Enhanced gamma-carboxylation of recombinant vitamin K-dependent clotting factor” (The Children's Hospital of Philadelphia, priority 1999, dated 2007).

In the series the test system is HEK 293 cells. As to the kind of experiment: rFactor X expression level of stable clones by sandwich ELISA. Type of series: cell-based, human. The protocol:
Expression of rFactor X. HEK 293 cells were transfected with pCMV4-ss-pro-II-Factor X using Lipofectamine according to the manufacturer's instructions. Cotransfection with a plasmid containing the neomycin resistance gene and the PACE/furin gene (pcDNA3-PACE; pcDNA3 was obtained from Invitrogen and the PACE cDNA was obtained from Genetics Institute, Boston, Mass.) was performed at a 1:10 molar ratio (pcDNA3-PACE/pCMV4-ss-pro-II-Factor X). Transfectants were selected with the neomycin analogue G418, and resistant colonies were screened for Factor X production by sandwich ELISA as described (Larson et al., 1998, Biochemistry 37:5029). Selected clones were expanded into NUNC cell factories (1264 or 6320 cm^2; Nalge Nunc Int., Naperville, Ill.) and a total of 6–15 liters of conditioned media was collected over 14–21 days. The medium was filtered and made 10 mM benzamidine prior to storage at −20° C.
Expressions Purification and Characterization of a Recombinant Prothrombin Propeptide Factor X Chimeric Protein. The chimeric expression vector, pCMV4-ss-pro-II-wtFactor X, was used to transfect HEK 293 cells. Several clones which were positive for rFactor X by ELISA were selected and subsequently expanded to establish cell lines. Two clones harboring the prothrombin pre-pro-sequence, clone B5 and clone A1, as well as native rwtFactor X (clone D3; described previously in Larson et al., 1998, Biochemistry 37:5029) are described in detail here.
In general terms: ELISA stands for enzyme-linked immunosorbent assay.

“rFX-1 B5: rFactor X expressed with the prothrombin pre-pro-sequence in HEK 293 cells, clone B5”: the expression level is given as 4.0 μg/10^6 cells/24 hour.
Substance “rFX-1 D3: native rwtFactor X (FX propeptide, Thr→Arg at −2) expressed in HEK 293 cells, clone D3” had an expression level of 4.0 μg/10^6 cells/24 hour.
Next, “rFX-2 A1: rFactor X expressed with the prothrombin pre-pro-sequence in HEK 293 cells, clone A1”: 2.3 μg/10^6 cells/24 hour.
